By UniProt entry, the sequences of proteins in these tests, tags left out.
UniProt P21453, whole entry: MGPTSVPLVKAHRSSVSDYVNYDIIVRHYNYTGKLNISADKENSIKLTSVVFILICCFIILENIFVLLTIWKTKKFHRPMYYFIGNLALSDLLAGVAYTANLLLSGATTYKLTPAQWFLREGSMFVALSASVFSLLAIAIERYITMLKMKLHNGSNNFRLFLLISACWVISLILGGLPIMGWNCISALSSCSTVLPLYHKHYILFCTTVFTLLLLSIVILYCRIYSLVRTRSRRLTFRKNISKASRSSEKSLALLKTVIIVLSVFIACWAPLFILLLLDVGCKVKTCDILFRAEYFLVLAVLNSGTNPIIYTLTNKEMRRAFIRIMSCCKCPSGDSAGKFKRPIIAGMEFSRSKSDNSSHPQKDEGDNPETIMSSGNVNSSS

In US8791100B2 (Novartis AG, priority 2010, dated 2014):

Biological target: human S1P1 receptors (Homo sapiens (Human), UniProt P21453)
Assay: Human S1P1 Receptor Calcium FLIPR Antagonist Assay (HeLa Gα16 S1P1)
Format: cell-based
Conditions: relative antagonism vs probing agonist GNF-AC-1 at EC80, HeLa-S1P1/Gα16 cells
Excerpt: Human S1P1 Receptor Calcium FLIPR Antagonist Assay
The assay measures intracellular changes of Ca^2+ mediated by the synthetic probing agonist 3-{[2-(2-Trifluoromethyl-biphenyl-4-yl)-benzo[b]thiophen-5-ylmethyl]-amino}-propionic acid (GNF-AC-1) in the HeLa-S1P1/Gα16 cell clone 1: HeLa (human cervix carcinoma, ATCC CCL2) cells stably expressing N-terminally myc-tagged human S1P1 receptors (GenBank™ accession No. NM_001400; UNIPROT P21453) and promiscuous Gα16 protein (GenBank™ accession number M63904, Swissprot P30679) are cultured at 37° C., 5% CO2, and 95% relative humidity. The cells are plated in 384 well black plates (10′000 cells per well). After 24 hours the cells are loaded with Fluo-4-AM (1.6 μM in HBSS and 2.5 mM probenicid) for 1 hour at 37° C. After washing, the cells are transferred to the FLIPR. The test compounds are added at different concentrations (≦100 μM) in HBSS in the presence of 0.1% BSA and changes in fluorescence are recorded (indication of agonism). The probing agonist is added 20-30 minutes afterwards to the wells at a concentration giving 80% of the maximal activity (EC80). After each addition, time points are collected as follows: 20 time points (2 seconds) before the addition of the agonist (Fmin) and 60 time points (1 or 2 seconds) after the addition of the probing agonist. This allows the determination of the maximal fluorescence (Fmax). The ratio (Fmax−Fmin)/Fmin is plotted against the log of the concentration of the test compounds and the IC50 (relative antagonism) is calculated using the XLfit-4 software. […] A concentration-response curve of the probing agonist is determined on each plate in parallel.

| Structure (SMILES) | IC50 [nM] |
| --- | --- |
| CC[C@@H](Nc1ccc(Cl)c(CNCCC(=O)O)c1)c1cc(C)c(Cl)c(C)c1 [Example 53, 3-{2-Chloro-5-[(R)-1-(4-chloro-3,5-dimethyl-phenyl)-propylamino]-benzylamino}-propionic acid] | 1.2 |
| CC[C@@H](Nc1ccc(C)c(CNCCC(=O)O)c1)c1cc(C)c(Cl)c(C)c1 [Example 45, 3-{5-[(R)-1-(4-Chloro-3,5-dimethyl-phenyl)-propylamino]-2-methyl-benzylamino}-propionic acid] | 1.2 |
| CC[C@@H](Nc1cc(CN2CC[C@@H](C(=O)O)C2)c(Cl)cn1)c1cc(C)c(Cl)c(C)c1 [Example 59, (R)-1-{5-Chloro-2-[(R)-1-(4-chloro-3,5-dimethyl-phenyl)-propylamino]-pyridin-4-ylmethyl}-pyrrolidine-3-carboxylic acid] | 1.2 |
| CC[C@@H](Nc1ccc(Cl)c(CN2CC(C)(C(=O)O)C2)c1)c1cc(C)c(Cl)c(C)c1 [Example 66, 1-{2-Chloro-5-[(R)-1-(4-chloro-3,5-dimethyl-phenyl)-propylamino]-benzyl}-3-methyl-azetidine-3-carboxylic acid] | 1.2 |

Second part, the compound after the results:

| IC50 [nM] | Structure (SMILES) |
| --- | --- |
| 1.2 | Cc1cc([C@H](Nc2cccc([C@H](C)NCCC(=O)O)c2)C(F)(F)F)ccc1Cl [Example 73, 3-((S)-1-{3-[(S)-1-(4-Chloro-3-methyl-phenyl)-2,2,2-trifluoro-ethylamino]-phenyl}-ethylamino)-propionic acid] |
| 1.2 | CC[C@@H](Nc1cc(CN2CCC(C)(C(=O)O)C2)c(Cl)cn1)c1ccc(Cl)c(C)c1 (single isomer, unassigned) [Example 86] |
